In assay [1] the test system is MCF7-3.23 cells. In words: Clonal survival, BRCA1 silenced MCF7-3.23 cells. It is filed as cell-based, human. As to conditions: MCF7-3.23, continuous exposure 12-14 days.
The target in assay [2] is PARP-1 (Homo sapiens, UniProt P09874). Description: PARP-1 enzyme activity inhibition. It is filed as biochemical. The following applies: PARP-1 and PARP-2, compared with KU0058684 and KU0058948.
The test system of assay [3] is wild-type ES cells. In words: Rad51 focus formation, wild-type ES cells. As to conditions: 48 hours.
Assay [4] deals with Brca1 deficient ES cells. Description: Clonogenic assay, continuous exposure, Brca1 deficient ES cells.
For assay [5], the system named is MCF7-scrambled cells. Description: Clonal survival, BRCA1 wild-type MCF7-scrambled cells. It is filed as cell-based, human. As to conditions: continuous exposure 12-14 days.
Assay [6] relates to Brca2 deficient ES cells. Description: Clonogenic assay, continuous exposure, Brca2 deficient ES cells.
The subject of assay [7] is Fancd2−/−, Fanca−/−, Fancc−/− and Fanca−/−c−/− fibroblasts. Description: Clonogenic survival, Fanconi anaemia mouse fibroblasts. The following applies: continuous exposure 12-14 days.

Protein sequences, listed by entry. Tags and fused reporters are not part of them.
UniProt P09874, whole entry: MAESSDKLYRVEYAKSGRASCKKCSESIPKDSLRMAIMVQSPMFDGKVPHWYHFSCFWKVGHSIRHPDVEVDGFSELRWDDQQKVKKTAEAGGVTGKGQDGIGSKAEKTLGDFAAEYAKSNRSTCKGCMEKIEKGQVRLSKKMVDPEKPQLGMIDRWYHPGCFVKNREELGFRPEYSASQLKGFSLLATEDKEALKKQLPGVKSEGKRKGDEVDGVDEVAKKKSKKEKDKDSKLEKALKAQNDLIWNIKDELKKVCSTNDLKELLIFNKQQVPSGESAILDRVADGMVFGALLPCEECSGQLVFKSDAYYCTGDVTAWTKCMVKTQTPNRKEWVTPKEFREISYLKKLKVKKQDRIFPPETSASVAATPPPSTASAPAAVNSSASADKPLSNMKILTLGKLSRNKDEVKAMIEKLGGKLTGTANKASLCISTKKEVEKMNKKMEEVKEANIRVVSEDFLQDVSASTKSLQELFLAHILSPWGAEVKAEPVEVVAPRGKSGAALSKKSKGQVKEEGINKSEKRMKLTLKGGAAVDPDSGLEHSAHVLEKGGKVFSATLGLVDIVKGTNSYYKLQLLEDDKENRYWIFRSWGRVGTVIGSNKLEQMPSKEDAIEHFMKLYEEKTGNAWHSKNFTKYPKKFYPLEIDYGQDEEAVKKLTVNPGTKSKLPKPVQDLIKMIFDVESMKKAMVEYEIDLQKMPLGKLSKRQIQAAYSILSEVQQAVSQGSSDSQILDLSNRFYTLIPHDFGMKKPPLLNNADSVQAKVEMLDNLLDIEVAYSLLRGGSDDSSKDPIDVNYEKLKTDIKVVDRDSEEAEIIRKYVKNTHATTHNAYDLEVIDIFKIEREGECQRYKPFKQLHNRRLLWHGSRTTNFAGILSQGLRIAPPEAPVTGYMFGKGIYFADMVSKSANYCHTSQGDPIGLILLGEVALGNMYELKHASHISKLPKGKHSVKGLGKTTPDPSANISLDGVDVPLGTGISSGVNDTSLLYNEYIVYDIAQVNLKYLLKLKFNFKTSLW

As to `O=c1[nH]nc(Cc2ccccc2)c2ccccc12`, the “sensitivity (clonal survival)” value in assay [1] and in assay [5] was “Neither MCF7-scrambled nor MCF7-3.23 cells displayed significant sensitivity” throughout. Also, the times less effective in the inhibition of these enzymes in assay [2] is 250 ×. The Rad51 foci formation result in assay [3] was “did not induce Rad51 focus formation”. For the same molecule, in assay [4], the “sensitivity of Brca1 deficient cells compared to otherwise isogenic cells” value is “no selective effect”. In addition, the “sensitivity of Brca2 deficient cells compared to otherwise isogenic cells” value in assay [6] is listed as “no selective effect”. Moreover, in assay [7], the “sensitivity of FA gene deficient fibroblasts compared to wild-type cells” value is reported as “no difference in sensitivity”.

Values taken from US8143241B2, “DNA damage repair inhibitors for treatment of cancer” (Kudos Pharmaceuticals Limited, priority 2003, dated 2012).
